The values below come from PubChem BioAssay AID624464 (National Center for Advancing Translational Sciences (NCATS), 2012).

Chains of the proteins cited; added tags and fusions are not shown.
UniProt P14416, whole entry: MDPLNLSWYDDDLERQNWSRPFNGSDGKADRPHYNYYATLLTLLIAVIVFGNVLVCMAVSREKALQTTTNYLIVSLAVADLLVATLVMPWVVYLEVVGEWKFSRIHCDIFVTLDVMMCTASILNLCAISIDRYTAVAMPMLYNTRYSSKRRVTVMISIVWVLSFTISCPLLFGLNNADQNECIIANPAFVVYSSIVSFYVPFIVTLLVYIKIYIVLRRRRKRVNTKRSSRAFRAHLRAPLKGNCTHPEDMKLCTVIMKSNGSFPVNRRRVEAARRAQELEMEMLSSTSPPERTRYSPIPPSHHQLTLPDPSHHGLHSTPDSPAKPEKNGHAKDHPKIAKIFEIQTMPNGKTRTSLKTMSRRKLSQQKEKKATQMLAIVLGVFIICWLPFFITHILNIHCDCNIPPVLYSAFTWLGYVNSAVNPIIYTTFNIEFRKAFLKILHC

SMILES strings stand for the structures. This is a selection; strong and weak results do not stand in their true shares. Active and inactive are the calls of the source. No stated cut-off is given here; in the data, active means potentiation above about 50%; inconclusive means mostly about 30% to 49%; inactive means weaker than that.

For this assay, the target named is D(2) dopamine receptor (Homo sapiens) (UniProt P14416). The assay is described as follows: Beta-Arrestin HTS for Positive Allosteric Modulators of the Human D2 Dopamine Receptor: Potentiators. Conditions: DiscoveRx D2 beta-arrestin cells, luminescence, 90 min; stronger effect = higher value; 100% = 57 uM dopamine signal. A digest of the protocol: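 PathHunter D2 cells, attached overnight at 37 deg C, received compound in DMSO plus dopamine at EC20 (50 nM final) for 90 min at 37 deg C. Beta-arrestin recruitment was read as luminescence after 1 h with detection reagent at ambient temperature.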
For the compound `CC(C)(C)C(=O)NC(Sc1ncccn1)C(Cl)(Cl)Cl` (stereo unspecified), the potentiation was inactive: -12.5%. For the compound `COc1ccccc1CNC(=O)COC(=O)C(O)(c1ccccc1)c1ccccc1`, the potentiation is inactive: -19.1%. The value for `Cc1ccc(S(=O)(=O)N(CCCN)CCCc2c(C)nc(N)[nH]c2=O)cc1.O=[N+]([O-])c1cc([N+](=O)[O-])c(O)c([N+](=O)[O-])c1` was inactive: -22.6%. For the compound `CN(C(=O)Cc1ccc(Cl)c(Cl)c1)[C@@H]1CCCC[C@H]1N1CCCC1`, the potentiation is inactive: -11.7%. On to `CC(C)/C=N\N=C(\N)N[N+](=O)[O-]`, for which the potentiation is inactive: -3.09%. Regarding `Cc1nc2ccc3ccccc3c2s1.O=[N+]([O-])c1cc([N+](=O)[O-])c(O)c([N+](=O)[O-])c1`, the potentiation was inactive: -29.2%. With `CC1(CBr)Cn2c(nc3ccccc3c2=O)S1` (stereo unspecified), the potentiation was inactive: 4.01%. With `O=C(OC1CN2CCC1CC2)c1ccc(Cl)cc1` (stereo unspecified), the potentiation was inactive: -3.12%. Take `O=[As](O)(O)c1cccnc1`: the potentiation is inactive: -5.94%.

Turning to `COc1cc(C(=O)NCC2(N3CCOCC3)CCCCC2)cc(Cl)c1OC(C)C`, the potentiation was inactive: -16.3%. The value for `CS(=O)(=O)c1ccc(Cl)c(NC(=O)COC(=O)C(O)(c2ccccc2)c2ccccc2)c1` was inactive: -31.5%; that for `COc1ccccc1OP(C)(=O)Nc1cccc(Br)c1` (stereo unspecified) was inactive: -0.496%; that for `Cc1cccc(OCC(=O)OC2CN3CCC2CC3)c1` (stereo unspecified) was inactive: 4.89%. In the case of `O=[As](O)(c1cccc(O)c1)c1cccc(O)c1` it was inactive: 1.22%. As for `Cc1cc(C)cc(OP(C)(=O)Nc2ccc(C)cc2C)c1` (stereo unspecified), the potentiation is inactive: -9.07%.

As for `CCOC(=O)c1ccc(NP(C)(=O)Oc2cc(C)cc(C)c2)cc1` (stereo unspecified), the potentiation is inactive: -23%.

Consider `Cc1cc(C)cc(OP(C)(=O)Nc2ccccn2)c1` (stereo unspecified), for which the potentiation was inactive: 12.7%. The value for `CP(=O)(Nc1cccc(Br)c1)Oc1ccccc1` (stereo unspecified) was inactive: -4.14%; that for `Nc1cccc2c([As](=O)(O)O)cccc12` was inactive: 10.8%. In the case of `Cc1ccc(NCCc2c([N+](=O)[O-])cc([N+](=O)[O-])cc2[N+](=O)[O-])cc1` it was inactive: 27%; in that of `Cc1ccc(C)c(NP(C)(=O)Oc2ccccc2)c1` (stereo unspecified), inactive: -10.9%. In the case of `CCOP(=O)(Nc1cccc2ccccc12)OCC` it was inactive: -4.42%; in that of `CCOP1(=S)c2c(C)nn(CCC#N)c2N=C(c2ccccc2F)N1C` (stereo unspecified), inactive: -10.4%; in that of `O=P(Nc1nccs1)(Oc1ccccc1)Oc1ccccc1`, inactive: -9.71%. Regarding `O=P(Nc1nccs1)(c1ccccc1)c1nc2ccccc2s1` (stereo unspecified), the potentiation is inactive: -15.4%.

For the compound `CS(=O)(=O)c1cc([N+](=O)[O-])c2no[n+]([O-])c2c1`, the potentiation was inactive: -2.8%. Turning to `O=C(O)COc1ccc([As](=O)(O)O)cc1[N+](=O)[O-]`, the potentiation was inactive: 2.88%. In the case of `Nc1ccccc1[As](=O)(O)c1ccccc1` it was inactive: 0.288%; in that of `NC(=O)Nc1ccc([As](=O)(O)O)cc1`, inactive: -5.7%; in that of `N#CCCN(C(=O)COC(=O)C(O)(c1ccccc1)c1ccccc1)c1ccc(F)cc1`, inactive: -21.4%.

Turning to `CN(C(=O)Cc1ccccc1)[C@@H]1CC[C@]2(CCCO2)C[C@H]1N1CCCC1`, the potentiation was inactive: 4.23%. Turning to `CCOP1(=S)c2c(C)nn(CCC#N)c2N=C(c2ccc(F)cc2)N1C` (stereo unspecified), the potentiation was inactive: -9.38%. In the case of `O=[N+]([O-])c1ccc2c(c1)nnn2O` it was inactive: -9.66%. Take `CN(C)C(=O)c1cc([N+](=O)[O-])cc2c1-c1c(cc([N+](=O)[O-])cc1[N+](=O)[O-])C2=O`: the potentiation is inactive: 24.8%. The value for `CC1=NCCc2c1[nH]c1ccccc21.O=[N+]([O-])c1cc([N+](=O)[O-])c(O)c([N+](=O)[O-])c1` was inactive: -1.37%; that for `CN(C(=O)Cc1ccc(Cl)c(Cl)c1)[C@H]1CC[C@@]2(CCCO2)C[C@@H]1N1CCCC1` was inactive: 0.0959%.
